Numbering of substitutions follows the chain as printed. Read-outs that look alike come from different tables or passages of the source.
Assays:
GCase N370S [1] = target: T1, GCase N370S (Homo sapiens, UniProt P04062, N409S); conditions: read-out: IC50, rhGCase N370S; purified recombinant enzyme mutant
T1 sequence (P04062 40-536 N409S): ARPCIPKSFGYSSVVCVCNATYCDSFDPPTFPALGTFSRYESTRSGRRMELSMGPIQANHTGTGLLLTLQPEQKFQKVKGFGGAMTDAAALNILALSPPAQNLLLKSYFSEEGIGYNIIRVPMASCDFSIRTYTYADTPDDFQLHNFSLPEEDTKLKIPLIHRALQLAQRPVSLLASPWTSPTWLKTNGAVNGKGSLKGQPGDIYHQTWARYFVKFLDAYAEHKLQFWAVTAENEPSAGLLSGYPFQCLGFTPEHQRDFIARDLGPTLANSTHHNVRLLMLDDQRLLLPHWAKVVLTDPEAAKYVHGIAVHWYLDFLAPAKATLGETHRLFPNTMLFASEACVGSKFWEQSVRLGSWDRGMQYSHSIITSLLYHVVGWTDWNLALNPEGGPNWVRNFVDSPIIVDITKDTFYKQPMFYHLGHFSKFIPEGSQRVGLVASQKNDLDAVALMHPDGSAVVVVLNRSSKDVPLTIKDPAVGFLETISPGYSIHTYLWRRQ

GCase N370S [2] = target: T1, GCase N370S; assay: cell-based
GCase = target: T2, GCase (Homo sapiens, UniProt P04062); assay: biochemical
T2 sequence (P04062 40-536): T1 sequence (P04062 40-536 N409S) with S370N

rhGCase Wild-type = target: T3, rhGCase Wild-type (Homo sapiens, UniProt P04062); assay: biochemical; conditions: purified recombinant enzyme
T3 sequence (P04062 40-536): T1 sequence (P04062 40-536 N409S) with S370N

rhGCase L444P = target: T4, rhGCase L444P (Homo sapiens, UniProt P04062, L483P); assay: biochemical; conditions: purified recombinant enzyme mutant
T4 sequence (P04062 40-536 L483P): T1 sequence (P04062 40-536 N409S) with S370N, L444P

GCase N370S [3] = target: T1, GCase N370S; assay: biochemical

| Structure (SMILES) | IC50 (GCase N370S [1]) | EC50 (GCase N370S [2]) | Ki (GCase; Ki pH 5.2, pH 5.2) | Ki (GCase; Ki pH 7, pH 7) | IC50 (rhGCase Wild-type; IC50, rhGCase Wild-type) | IC50 (rhGCase L444P; IC50, rhGCase L444P) | IC50 (rhGCase Wild-type; IC50, wild-type enzyme, in the 50 nM range) | IC50 (rhGCase L444P; IC50, L444P enzyme mutant, in the 50 nM range) | IC50 (GCase N370S [3]) |
| --- | --- | --- | --- | --- | --- | --- | --- | --- | --- |
| O[C@H]1[C@H](O)CNC[C@@H]1C(F)F [Compound 1] | 556 nM | 18 nM | 14 nM | 3 nM | 36 nM | 46 nM | – | – | – |
| O=C(O)/C=C/C(=O)O.O[C@H]1[C@H](O)CNC[C@@H]1C(F)F [Compound 3] | – | – | – | – | – | – | ~50 nM | ~50 nM | 556 nM |
